Screening results (PubChem BioAssay)
The list is not random: actives were taken first. Their share in the collection is about 1.3%.
SR-BI HDL uptake – blocks mouse SR-BI lipid uptake from DiI-HDL; Q61009; ldlA[mSR-BI] CHO cells, DiI-HDL uptake fluorescence, 3 h; inhibition, % at 12.5 µM; hit rate 0.96% among 320,000; AID 488896;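 active = mean replicate inhibition of at least 70% and a set share of replicates each scoring 70 or more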;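 also: 0% = median of neutral control wells and 100% = median of positive control wells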
GSIS activator – primary screen for activators of insulin secretion dependent on glucose, INS-1E cells, GLuc reporter luminescence; INS-1E GLuc reporter insulin secretion, 2-3 h; activation, % at 16.6 µM; hit rate 0.61% among 370,000;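 active = lowest replicate activation of at least 40%, so every replicate reaches that level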;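 also: 0% = median of neutral control wells and 100% = median of IBMX positive control wells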
Yeast UUG start-1 – alters start codon recognition fidelity in yeast; S. cerevisiae UUG-firefly luciferase reporter, luminescence/redox ratio; activity score, % at 18.7 µM; actives 0.13% (n = 350,000); AID 602363;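 active = replicate mean at a twofold rise or more, about +100% in these data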;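 also: firefly luciferase made from a UUG start codon reports start codon fidelity; reporter light over untreated wells divided by growth signal over untreated wells; some hits fall short of that in this replicate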
SR-BI DiI-HDL act – SR-BI HDL lipid transfer activation; CHO ldlA[mSR-BI] cells, DiI-HDL uptake fluorescence, 3 h; 100 = double the neutral-control signal; activation, % at 12.5 µM; hit rate 0.096% among 320,000;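 active = mean replicate activation of at least 60% and every replicate at or above 60%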;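 also: 0% = median plate neutral-control signal and 100% = twice that signal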
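Assay system: CHO ldlA[mSR-BI] cells, LDL receptor-null, SR-BI overexpressing; medium: Ham's F12 with 0.5% BSA, HEPES 25 mM, pH 7.4; also added: DiI-HDL 10 µg/mL; timing: 3 h uptake period with compound, 37 °C; signal: DiI fluorescence, bottom read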
Yeast UUG start-2 – modulators of start codon recognition fidelity in yeast. 540 tested, under 10 active. shares compounds with Yeast UUG start-1. S. cerevisiae UUG-start firefly luciferase, luminescence, 4 h; 100% means double the DMSO signal. activation, % at 38 µM;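 active = signal increase whose fitted curve reaches an absolute level of 40 at a concentration under 10 µM; inactive = activity opposite to the expected increase, or the rest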
* marks the source's active call; other numbers are inactive results.

Results for CC(C)C#Cc1ccc2c(c1)O[C@@H](CN(C)C(=O)CC1CC1)[C@H](C)CN([C@H](C)CO)S2(=O)=O ?
GSIS activator: -15.8; Yeast UUG start-1: 70.3*; Yeast UUG start-2: inactive

How did CCCC#Cc1ccc2c(c1)O[C@H](CN(C)Cc1cncnc1)[C@@H](C)CN([C@@H](C)CO)S2(=O)=O do in these assays?
GSIS activator: -10.7; Yeast UUG start-1: 80.4*; Yeast UUG start-2: inactive

How did Cc1ccc(-c2ccc3c(c2)O[C@@H](CN(C)C(=O)Nc2ccccc2)[C@H](C)CN([C@@H](C)CO)S3(=O)=O)cc1 do in these assays?
GSIS activator: -31.9; Yeast UUG start-1: 5.0

How did Cc1ccc(-c2ccc3c(c2)O[C@H](CN(C)C(=O)Nc2ccccc2)[C@H](C)CN([C@H](C)CO)S3(=O)=O)cc1 do in these assays?
GSIS activator: -11.8; Yeast UUG start-1: 122.3*; Yeast UUG start-2: inactive

Results for CCCC#Cc1ccc2c(c1)O[C@@H](CN(C)C(=O)CN(C)C)[C@H](C)CN([C@H](C)CO)S2(=O)=O ?
GSIS activator: 10.7; Yeast UUG start-1: 149.6*; Yeast UUG start-2: inactive

How did CCCC#Cc1ccc2c(c1)O[C@@H](CN(C)Cc1cncnc1)[C@@H](C)CN([C@H](C)CO)S2(=O)=O do in these assays?
GSIS activator: -34.1; Yeast UUG start-1: 1.9

What do the screens show for `CO[C@H]1CN(C)C(=O)c2cc(NC(=O)c3ccccc3)ccc2OC[C@H](C)N(C)C[C@@H]1C`?
GSIS activator: -2.2; Yeast UUG start-1: 2.7

How did CCCN1C[C@H](C)[C@H](OC)CN(C)C(=O)c2cc(NC(=O)NC3CCCCC3)ccc2OC[C@H]1C do in these assays?
GSIS activator: 9.4; Yeast UUG start-1: 8.2

Results for COc1cc2c(C#N)c(N3CCCCC3)nc(N)c2c(N)n1 ?
SR-BI HDL uptake: 6.0; Yeast UUG start-1: -17.4; SR-BI DiI-HDL act: -6.0

How did COc1cc2c(C#N)c(N3CCc4ccccc4C3)nc(N)c2c(N)n1 do in these assays?
SR-BI HDL uptake: 29.8; Yeast UUG start-1: 502.1*; SR-BI DiI-HDL act: -29.8; Yeast UUG start-2: -3.8

Results for COc1ccc(NC(=O)Nc2ccc3c(c2)C(=O)N([C@H](C)CO)C[C@H](C)[C@H](CN(C)S(=O)(=O)c2cn(C)cn2)O3)cc1 ?
GSIS activator: 16.2; Yeast UUG start-1: -8.4

What do the screens show for `O=C(c1ccc(COc2ccc(Cl)cc2)cc1)N1CCCCC1`?
SR-BI HDL uptake: 8.2; GSIS activator: -12.9; Yeast UUG start-1: 410.4*; SR-BI DiI-HDL act: -8.2; Yeast UUG start-2: 3.1

How did C[C@H](O)C#Cc1cnc2c(c1)C(=O)N([C@H](C)CO)C[C@H](C)[C@H](CN(C)Cc1ccc(-c3ccccc3)cc1)O2 do in these assays?
GSIS activator: 9.9; Yeast UUG start-1: 2.4

Results for C[C@H]1CN([C@@H](C)CO)S(=O)(=O)c2ccc(C#CC3CCCC3)cc2O[C@H]1CN(C)Cc1cccnc1 ?
GSIS activator: -10.3; Yeast UUG start-1: 141.8*; Yeast UUG start-2: inactive

How did CC(C)C#Cc1ccc2c(c1)O[C@@H](CN(C)Cc1cccnc1)[C@H](C)CN([C@@H](C)CO)S2(=O)=O do in these assays?
GSIS activator: -23.7; Yeast UUG start-1: 72.2*; Yeast UUG start-2: inactive

Ordered by formula weight (ascending): 3 of the compounds above
Results for COc1cc2c(C#N)c(N3CCCCC3)nc(N)c2c(N)n1 ?
SR-BI HDL uptake: 6.0; Yeast UUG start-1: -17.4; SR-BI DiI-HDL act: -6.0

Results for CCCC#Cc1ccc2c(c1)O[C@@H](CN(C)C(=O)CN(C)C)[C@H](C)CN([C@H](C)CO)S2(=O)=O ?
GSIS activator: 10.7; Yeast UUG start-1: 149.6*; Yeast UUG start-2: inactive

How did C[C@H](O)C#Cc1cnc2c(c1)C(=O)N([C@H](C)CO)C[C@H](C)[C@H](CN(C)Cc1ccc(-c3ccccc3)cc1)O2 do in these assays?
GSIS activator: 9.9; Yeast UUG start-1: 2.4

Remaining list, next part.
Results for CC(C)N(CC#CC(O)(c1ccccc1)c1ccccc1)C(C)C ?
SR-BI HDL uptake: -21.7; GSIS activator: 0.3; SR-BI DiI-HDL act: 21.7; Yeast UUG start-2: -5.8

Results for CC(C)N(CC#CC(O)(c1ccccc1)c1ccccc1)CCO ?
SR-BI HDL uptake: -37.0; GSIS activator: 11.8; Yeast UUG start-1: -12.9; SR-BI DiI-HDL act: 37.0

Results for COC(=O)c1cn(NC(=O)Cc2cccc(OC)c2)c(=O)c2ccccc12 ?
SR-BI HDL uptake: -1.1; GSIS activator: -10.8; Yeast UUG start-1: -8.0; SR-BI DiI-HDL act: 1.1

What do the screens show for `COC(=O)c1cn(NC(=O)Cc2ccc(OC)c(OC)c2)c(=O)c2ccccc12`?
SR-BI HDL uptake: -21.6; GSIS activator: -4.6; Yeast UUG start-1: 478.6*; SR-BI DiI-HDL act: 21.6; Yeast UUG start-2: -0.9

Results for N#Cc1ccccc1CN1C(=O)NC(Cc2c[nH]c3ccccc23)C1=O (stereo unspecified) ?
SR-BI HDL uptake: 4.8; GSIS activator: -12.5; Yeast UUG start-1: 588.2*; SR-BI DiI-HDL act: -4.8; Yeast UUG start-2: 9.8

How did O=C1NC(Cc2c[nH]c3ccccc23)C(=O)N1Cc1ccccc1 (stereo unspecified) do in these assays?
SR-BI HDL uptake: 3.8; GSIS activator: 27.9; Yeast UUG start-1: -11.6; SR-BI DiI-HDL act: -3.8

Results for CC1CCN(C(=O)Cc2nn(C)c(=O)c3ccccc23)CC1 ?
SR-BI HDL uptake: 13.3; Yeast UUG start-1: -8.5; SR-BI DiI-HDL act: -13.3; Yeast UUG start-2: 4.0

What do the screens show for `Cn1nc(CC(=O)N2CCN(c3ccccc3)CC2)c2ccccc2c1=O`?
SR-BI HDL uptake: -6.2; Yeast UUG start-1: -8.3; SR-BI DiI-HDL act: 6.2; Yeast UUG start-2: -2.3

What do the screens show for `O=C(O)c1nn(CC(=O)N2CCN(c3ccccc3)CC2)c(=O)c2ccccc12`?
GSIS activator: -7.0; Yeast UUG start-1: -10.4

Results for CCOC(=O)Cc1nn(C)c(=O)c2ccccc12 ?
SR-BI HDL uptake: 7.3; GSIS activator: 3.9; Yeast UUG start-1: -11.5; SR-BI DiI-HDL act: -7.3

What do the screens show for `C[C@@H]1CN([C@H](C)CO)C(=O)Cc2cc(NC(=O)CCN3CCOCC3)ccc2O[C@@H]1CN(C)Cc1ccc(Cl)c(Cl)c1`?
GSIS activator: 4.4; Yeast UUG start-1: -4.8

Results for Cc1occc1C(=O)Nc1ccccc1NC(=O)c1ccoc1C ?
SR-BI HDL uptake: -3.8; Yeast UUG start-1: 197.9*; SR-BI DiI-HDL act: 3.8; Yeast UUG start-2: -2.4

Results for Cc1occc1C(=O)Nc1cccc2ccccc12 ?
SR-BI HDL uptake: 17.6; Yeast UUG start-1: -10.6; SR-BI DiI-HDL act: -17.6

What do the screens show for `C/C=C/c1cnc2c(c1)C(=O)N([C@H](C)CO)C[C@H](C)[C@H](CN(C)S(=O)(=O)c1ccc(F)cc1)O2`?
GSIS activator: 0.6; Yeast UUG start-1: 129.6*; Yeast UUG start-2: inactive

Results for C[C@@H]1CN([C@@H](C)CO)C(=O)c2cc(C#CC3CCCCC3)cnc2O[C@H]1CN(C)S(=O)(=O)c1ccc(F)cc1 ?
GSIS activator: -14.8; Yeast UUG start-1: 118.8*; Yeast UUG start-2: inactive

What do the screens show for `CCCN1C[C@@H](C)[C@@H](OC)CN(C)C(=O)c2ccc(NS(=O)(=O)c3cn(C)cn3)cc2OC[C@H]1C`?
GSIS activator: 12.0

Results for CCCC#Cc1cnc2c(c1)C(=O)N([C@H](C)CO)C[C@H](C)[C@@H](CN(C)C(=O)CCN1CCCCC1)O2 ?
GSIS activator: -10.0; Yeast UUG start-1: 166.2*; Yeast UUG start-2: 4.0

Results for CC(C)CC#Cc1cnc2c(c1)C(=O)N([C@H](C)CO)C[C@H](C)[C@@H](CN(C)C(=O)CC1CC1)O2 ?
GSIS activator: -8.9; Yeast UUG start-1: 146.6*; Yeast UUG start-2: inactive
